Earlier results on two substances are cited in patent US20230312752A1 (Brown University, priority 2021, published 2023).

Amino acid sequences for entries named in this document (tags omitted). A change or cut given only in a name is not applied to a line headed by its entry.
UniProt P50613: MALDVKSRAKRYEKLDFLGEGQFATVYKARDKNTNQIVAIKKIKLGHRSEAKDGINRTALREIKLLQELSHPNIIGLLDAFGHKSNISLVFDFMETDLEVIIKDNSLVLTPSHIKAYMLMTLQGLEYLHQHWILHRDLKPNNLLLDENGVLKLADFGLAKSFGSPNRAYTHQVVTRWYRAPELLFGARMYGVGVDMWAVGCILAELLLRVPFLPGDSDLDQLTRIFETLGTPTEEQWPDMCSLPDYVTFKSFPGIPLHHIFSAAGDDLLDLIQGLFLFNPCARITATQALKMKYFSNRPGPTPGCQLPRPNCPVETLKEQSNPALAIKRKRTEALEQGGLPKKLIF
UniProt P11802, whole entry, species assumed: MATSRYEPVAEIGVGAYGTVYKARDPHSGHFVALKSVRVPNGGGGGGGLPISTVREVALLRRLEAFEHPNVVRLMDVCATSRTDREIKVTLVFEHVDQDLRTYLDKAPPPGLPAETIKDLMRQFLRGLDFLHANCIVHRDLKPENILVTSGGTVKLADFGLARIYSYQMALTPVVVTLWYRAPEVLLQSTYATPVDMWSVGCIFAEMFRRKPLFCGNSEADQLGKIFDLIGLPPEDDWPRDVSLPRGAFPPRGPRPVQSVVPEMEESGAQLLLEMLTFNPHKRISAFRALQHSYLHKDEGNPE

For one series, the target named is CDK7 (Homo sapiens, UniProt P50613). More on the design: key: + is used to indicate the potency of the inhibitor; ++++ > +++ > ++ > +; + is used to indicate the potency of the inhibitor; ++++ > +++ > ++ > +; + is used to indicate the potency of the inhibitor; ++++ > +++ > ++ > +; + is used to indicate the potency of the inhibitor; ++++ > +++ > ++ > +; ◯ refers to compounds with inhibitory effects on the related isoform, but without specific value. As to conditions: cited from earlier work.

A further series has as its target CDK4 (Homo sapiens, UniProt P11802). Also on record: key to the marks not given beside the values. The following applies: cited from earlier work.

For BS-181 HCl, the “Inhibitory potency CDK7” value on CDK7 is reported as “+++”. For Palbociclib Isethionate, the “Inhibitory potency CDK4” value on CDK4 was “++++”.
